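Assay format: 96-well plates, 48-hour exposure. GI50 = concentration required for 50% inhibition of growth. TGI: total growth inhibition.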
What was measured:
Assay in all cases: NCI anticancer screen, dose series, 48 h
786-0 renal = test system: 786-0 renal
A549 NSCLC = test system: A549 NSCLC
ACHN renal = test system: ACHN renal
CAKI-1 renal = test system: CAKI-1 renal
CCRF-CEM leukemia = test system: CCRF-CEM leukemia
COLO 205 colon = test system: COLO 205 colon
DLD-1 colon = test system: DLD-1 colon
DMS 114 small cell lung = test system: DMS 114 small cell lung
DMS 273 small cell lung = test system: DMS 273 small cell lung
EKVX NSCLC = test system: EKVX NSCLC
HCC-2998 colon = test system: HCC-2998 colon
HCT-116 colon = test system: HCT-116 colon
HCT-15 colon = test system: HCT-15 colon
HL-60(TB) leukemia = test system: HL-60(TB) leukemia
HOP-18 NSCLC = test system: HOP-18 NSCLC
HOP-92 NSCLC = test system: HOP-92 NSCLC
HT29 colon = test system: HT29 colon
IGROV1 ovarian = test system: IGROV1 ovarian
K-562 leukemia = test system: K-562 leukemia
KM12 colon = test system: KM12 colon
KM20L2 colon = test system: KM20L2 colon
LOX IMVI melanoma = test system: LOX IMVI melanoma
LXFL 529 NSCLC = test system: LXFL 529 NSCLC
M14 melanoma = test system: M14 melanoma
M19-MEL melanoma = test system: M19-MEL melanoma
MALME-3M melanoma = test system: MALME-3M melanoma
MOLT-4 leukemia = test system: MOLT-4 leukemia
NCI-H226 lung = test system: NCI-H226 lung
NCI-H23 lung = test system: NCI-H23 lung
NCI-H322M lung = test system: NCI-H322M lung
NCI-H460 lung = test system: NCI-H460 lung
NCI-H522 lung = test system: NCI-H522 lung
OVCAR-3 ovarian = test system: OVCAR-3 ovarian
OVCAR-4 ovarian = test system: OVCAR-4 ovarian
OVCAR-5 ovarian = test system: OVCAR-5 ovarian
OVCAR-8 ovarian = test system: OVCAR-8 ovarian
RPMI-8226 leukemia = test system: RPMI-8226 leukemia
RXF 393 renal = test system: RXF 393 renal
SF-268 CNS = test system: SF-268 CNS
SF-295 CNS = test system: SF-295 CNS
SF-539 CNS = test system: SF-539 CNS
SK-MEL-2 melanoma = test system: SK-MEL-2 melanoma
SK-MEL-28 melanoma = test system: SK-MEL-28 melanoma
SK-MEL-5 melanoma = test system: SK-MEL-5 melanoma
SK-OV-3 ovarian = test system: SK-OV-3 ovarian
SN12C renal = test system: SN12C renal
SNB-19 CNS = test system: SNB-19 CNS
SNB-75 CNS = test system: SNB-75 CNS
SNB-78 CNS = test system: SNB-78 CNS
SR leukemia = test system: SR leukemia
SW-620 colon = test system: SW-620 colon
TK-10 renal = test system: TK-10 renal
U251 CNS = test system: U251 CNS
UACC-257 melanoma = test system: UACC-257 melanoma
UACC-62 melanoma = test system: UACC-62 melanoma
UO-31 renal = test system: UO-31 renal
XF 498 CNS = test system: XF 498 CNS

## CCCCCCP(=O)(OC)OC
786-0 renal
  GI50: > 100 µM
  TGI: > 100 µM
A549 NSCLC
  GI50: > 100 µM
  TGI: > 100 µM
ACHN renal
  GI50: > 100 µM
  TGI: > 100 µM
CAKI-1 renal
  GI50: > 100 µM
  TGI: > 100 µM
CCRF-CEM leukemia
  GI50: > 100 µM
  TGI: > 100 µM
COLO 205 colon
  GI50: > 100 µM
  TGI: > 100 µM
DLD-1 colon
  GI50: > 100 µM
  TGI: > 100 µM
DMS 114 small cell lung
  GI50: > 100 µM
  TGI: > 100 µM
DMS 273 small cell lung
  GI50: > 100 µM
  TGI: > 100 µM
EKVX NSCLC
  GI50: > 100 µM
  TGI: > 100 µM
HCC-2998 colon
  GI50: > 100 µM
  TGI: > 100 µM
HCT-116 colon
  GI50: > 100 µM
  TGI: > 100 µM
HCT-15 colon
  GI50: > 100 µM
  TGI: > 100 µM
HL-60(TB) leukemia
  GI50: > 100 µM
  TGI: > 100 µM
HOP-18 NSCLC
  GI50: > 100 µM
  TGI: > 100 µM
HOP-92 NSCLC
  GI50: > 100 µM
  TGI: > 100 µM
HT29 colon
  GI50: > 100 µM
  TGI: > 100 µM
IGROV1 ovarian
  GI50: > 100 µM
  TGI: > 100 µM
K-562 leukemia
  GI50: > 100 µM
  TGI: > 100 µM
KM12 colon
  GI50: > 100 µM
  TGI: > 100 µM
KM20L2 colon
  GI50: > 100 µM
  TGI: > 100 µM
LOX IMVI melanoma
  GI50: > 100 µM
  TGI: > 100 µM
LXFL 529 NSCLC
  GI50: > 100 µM
  TGI: > 100 µM
M14 melanoma
  GI50: > 100 µM
  TGI: > 100 µM
M19-MEL melanoma
  GI50: > 100 µM
  TGI: > 100 µM
MALME-3M melanoma
  GI50: > 100 µM
  TGI: > 100 µM
MOLT-4 leukemia
  GI50: > 100 µM
  TGI: > 100 µM
NCI-H226 lung
  GI50: > 100 µM
  TGI: > 100 µM
NCI-H23 lung
  GI50: > 100 µM
  TGI: > 100 µM
NCI-H322M lung
  GI50: > 100 µM
  TGI: > 100 µM
NCI-H460 lung
  GI50: > 100 µM
  TGI: > 100 µM
NCI-H522 lung
  GI50: > 100 µM
  TGI: > 100 µM
OVCAR-3 ovarian
  GI50: > 100 µM
  TGI: > 100 µM
OVCAR-4 ovarian
  GI50: > 100 µM
  TGI: > 100 µM
OVCAR-5 ovarian
  GI50: > 100 µM
  TGI: > 100 µM
OVCAR-8 ovarian
  GI50: > 100 µM
  TGI: > 100 µM
RPMI-8226 leukemia
  GI50: > 100 µM
  TGI: > 100 µM
RXF 393 renal
  GI50: > 100 µM
  TGI: > 100 µM
SF-268 CNS
  GI50: > 100 µM
  TGI: > 100 µM
SF-295 CNS
  GI50: > 100 µM
  TGI: > 100 µM
SF-539 CNS
  GI50: > 100 µM
  TGI: > 100 µM
SK-MEL-2 melanoma
  GI50: > 100 µM
  TGI: > 100 µM
SK-MEL-28 melanoma
  GI50: > 100 µM
  TGI: > 100 µM
SK-MEL-5 melanoma
  GI50: > 100 µM
  TGI: > 100 µM
SK-OV-3 ovarian
  GI50: > 100 µM
  TGI: > 100 µM
SN12C renal
  GI50: > 100 µM
  TGI: > 100 µM
SNB-19 CNS
  GI50: > 100 µM
  TGI: > 100 µM
SNB-75 CNS
  GI50: > 100 µM
  TGI: > 100 µM
SNB-78 CNS
  GI50: > 100 µM
  TGI: > 100 µM
SR leukemia
  GI50: > 100 µM
  TGI: > 100 µM
SW-620 colon
  GI50: 79.5 µM
  TGI: > 100 µM
TK-10 renal
  GI50: > 100 µM
  TGI: > 100 µM
U251 CNS
  GI50: > 100 µM
  TGI: > 100 µM
UACC-257 melanoma
  GI50: > 100 µM
  TGI: > 100 µM
UACC-62 melanoma
  GI50: > 100 µM
  TGI: > 100 µM
UO-31 renal
  GI50: > 100 µM
  TGI: > 100 µM
XF 498 CNS
  GI50: > 100 µM
  TGI: > 100 µM

Reference: PubChem BioAssay (NCI)
